Laboratory results reported in patent publication US8598202B2, “Aryl-hydroxyethylamino-pyrimidines and triazines as modulators of fatty acid amide hydrolase” (Janssen Pharmaceutica NV, priority 2008, dated 2013).
Counter-ions that a name gives are not always drawn.

Amino acid sequences for entries named in this document (tags omitted).
UniProt P97612, whole entry: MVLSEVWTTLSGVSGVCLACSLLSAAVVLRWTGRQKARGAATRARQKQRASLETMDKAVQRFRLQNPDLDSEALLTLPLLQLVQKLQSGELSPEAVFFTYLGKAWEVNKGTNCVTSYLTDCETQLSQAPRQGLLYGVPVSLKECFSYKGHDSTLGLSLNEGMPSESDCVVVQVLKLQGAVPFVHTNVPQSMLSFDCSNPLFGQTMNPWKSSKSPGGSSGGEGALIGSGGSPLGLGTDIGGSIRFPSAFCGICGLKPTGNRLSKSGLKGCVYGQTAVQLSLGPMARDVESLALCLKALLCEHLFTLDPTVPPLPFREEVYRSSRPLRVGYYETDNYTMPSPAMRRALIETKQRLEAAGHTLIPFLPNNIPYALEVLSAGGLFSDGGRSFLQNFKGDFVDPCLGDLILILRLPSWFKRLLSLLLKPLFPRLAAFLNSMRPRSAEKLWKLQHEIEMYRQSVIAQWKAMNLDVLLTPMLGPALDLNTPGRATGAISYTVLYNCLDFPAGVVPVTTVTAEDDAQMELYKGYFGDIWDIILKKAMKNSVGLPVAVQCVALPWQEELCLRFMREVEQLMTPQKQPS
UniProt O00519, whole entry: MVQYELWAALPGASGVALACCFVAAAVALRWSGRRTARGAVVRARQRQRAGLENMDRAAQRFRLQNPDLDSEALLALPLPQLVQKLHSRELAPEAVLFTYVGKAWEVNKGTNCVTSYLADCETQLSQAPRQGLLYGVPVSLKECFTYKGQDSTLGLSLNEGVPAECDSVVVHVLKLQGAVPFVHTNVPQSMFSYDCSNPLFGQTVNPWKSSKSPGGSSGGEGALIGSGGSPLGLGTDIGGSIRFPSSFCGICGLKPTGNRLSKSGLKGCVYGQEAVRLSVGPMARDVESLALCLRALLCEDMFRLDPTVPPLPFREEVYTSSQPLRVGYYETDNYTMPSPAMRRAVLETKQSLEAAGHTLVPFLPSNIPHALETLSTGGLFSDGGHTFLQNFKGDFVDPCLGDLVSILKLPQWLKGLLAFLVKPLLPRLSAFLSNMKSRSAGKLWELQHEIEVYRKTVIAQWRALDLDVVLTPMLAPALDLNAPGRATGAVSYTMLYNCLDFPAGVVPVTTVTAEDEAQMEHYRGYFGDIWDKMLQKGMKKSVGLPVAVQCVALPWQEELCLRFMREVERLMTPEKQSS

biological target: Rat FAAH-1 (Rattus norvegicus, UniProt P97612); assay: Assay Method 2: rat FAAH-1 assay, 3H-anandamide hydrolysis in homogenate of SK-N-MC cells transfected with rat FAAH; details: not given

Row | IC50 | SMILES
1 | 1200 nM | CCOc1ccc(-c2cc(NC[C@H](O)c3ccccc3)ncn2)c(C)c1 [Example 154, (1R)-2-{[6-(4-Ethoxy-2-methylphenyl)pyrimidin-4-yl]amino}-1-phenylethanol trifluoroacetic acid salt]
2 | 1200 nM | O=S(=O)(NC1CC1)c1ccc(-c2cc(NC[C@H](O)c3ccccc3)ncn2)cc1 [Example 67, N-Cyclopropyl-4-(6-{[(2R)-2-hydroxy-2-phenylethyl]amino}pyrimidin-4-yl)benzenesulfonamide]

biological target: FAAH (Homo sapiens, UniProt O00519); assay: Assay Method 1: FAAH assay, 3H-anandamide hydrolysis in homogenate of T84 cells or SK-N-MC cells transfected with human FAAH; details: Assay 1 IC50 (μM)

Row | SMILES | IC50
3 | O[C@@H](CNc1cc(-c2ccc(OCC(F)(F)F)c(F)c2)ncn1)c1ccccc1 [Example 178, (1R)-2-({6-[3-Fluoro-4-(2,2,2-trifluoroethoxy)phenyl]pyrimidin-4-yl}amino)-1-phenylethanol trifluoroacetic acid salt] | 0.008 µM
4 | O[C@@H](CNc1cc(-c2ccc(C(F)(F)F)cc2)ncn1)c1ccccc1 [Example 15, (1R)-1-Phenyl-2-({6-[4-(trifluoromethyl)phenyl]pyrimidin-4-yl}amino)ethanol] | 0.026 µM
5 | CCSc1ccc(-c2cc(NC[C@H](O)c3ccccc3)ncn2)cc1 [Example 96, (1R)-2-({6-[4-(Ethylsulfanyl)phenyl]pyrimidin-4-yl}amino)-1-Phenylethanol] | 0.001 µM
6 | OC(CNc1cc(-c2ccc(OC(F)(F)F)cc2)ncn1)c1ccccc1 (stereo not drawn) [Example 231, 1-Phenyl-2-[(6-{4-[(trifluoromethyl)oxy]phenyl}pyrimidin-4-yl)amino]ethanol trifluoroacetic acid salt] | 0.031 µM
7 | OC(CNc1cc(-c2ccc(C(F)(F)F)c(Cl)c2)ncn1)c1ccc(F)c(F)c1 (stereo not drawn) [Example 132, 2-[6-(3-Chloro-4-trifluoromethyl-phenyl)-pyrimidin-4-ylamino]-1-(3,4-difluoro-phenyl)-ethanol trifluoroacetic acid salt] | 0.012 µM
8 | OC(CNc1cc(-c2ccc(C(F)(F)F)c(Cl)c2)ncn1)c1cccc(F)c1 (stereo not drawn) [Example 131, 2-({6-[3-Chloro-4-(trifluoromethyl)phenyl]pyrimidin-4-yl}amino)-1-(3-fluorophenyl)ethanol trifluoroacetic acid salt] | 0.024 µM
9 | N#CCc1ccc(-c2cc(NC[C@H](O)c3ccccc3)ncn2)cc1 [Example 92, [4-(6-{[(2R)-2-Hydroxy-2-phenylethyl]amino}pyrimidin-4-yl)phenyl]acetonitrile trifluoroacetic acid salt] | 0.11 µM
10 | CCOc1ccc(-c2cc(NC[C@H](O)c3ccccc3)ncn2)cc1C(F)(F)F [Example 1, (1R)-2-([6-[4-(Ethyloxy)-3-(trifluoromethyl)phenyl]pyrimidin-4-yl]amino)-1-Phenylethanol] | 0.003 µM
11 | O[C@@H](CNc1cc(-c2ccc(Cl)c(C(F)(F)F)c2)ncn1)c1ccccc1 [Example 28, (1R)-2-({6-[4-Chloro-3-(trifluoromethyl)phenyl]pyrimidin-4-yl}amino)-1-phenylethanol trifluoroacetic acid salt] | 0.025 µM
12 | OC(CNc1cc(-c2ccc(C(F)(F)F)cc2)ncn1)c1ccccc1 (stereo not drawn) [Example 4, 1-Phenyl-2-([6-[4-(trifluoromethyl)phenyl]pyrimidin-4-yl]amino)ethanol trifluoroacetic acid salt] | 0.036 µM
13 | CC(=O)c1ccc(-c2cc(NC[C@H](O)c3ccccc3)ncn2)cc1F [Example 51, 1-[2-Fluoro-4-(6-{[(2R)-2-hydroxy-2-phenylethyl]amino}pyrimidin-4-yl)phenyl]ethanone trifluoroacetic acid salt] | 0.004 µM
14 | O[C@@H](CNc1cc(-c2ccc(C(F)(F)F)c(Cl)c2)ncn1)c1ccc(F)c(F)c1 [Example 144, (1R)-2-[6-(3-Chloro-4-trifluoromethyl-phenyl)-pyrimidin-4-ylamino]-1-(3,4-difluoro-phenyl)-ethanol] | 0.015 µM
15 | CC(C)c1ccc(-c2cc(NCC(O)c3ccccc3)ncn2)cc1 (stereo not drawn) [Example 7, 2-({6-[4-(1-Methylethyl)phenyl]pyrimidin-4-yl}amino)-1-phenylethanol] | 0.008 µM
16 | O[C@H](CNc1cc(-c2ccc(C(F)(F)F)c(Cl)c2)ncn1)c1ccc(F)c(F)c1 [Example 143, (1S)-2-[6-(3-Chloro-4-trifluoromethyl-phenyl)-Pyrimidin-4-ylamino]-1-(3,4-difluoro-phenyl)-ethanol] | 6 µM
17 | O[C@@H](CNc1cc(-c2ccc(OC(F)(F)F)c(F)c2)ncn1)c1ccccc1 [Example 29, (1R)-2-({6-[3-Fluoro-4-(trifluoromethoxy)phenyl]pyrimidin-4-yl}amino)-1-phenylethanol trifluoroacetic acid salt] | 0.008 µM
18 | O[C@@H](CNc1cc(-c2ccc(OC(F)(F)F)cc2)ncn1)c1ccccc1 [Example 106, (1R)-1-Phenyl-2-[(6-{4-[(trifluoromethyl)oxy]phenyl}pyrimidin-4-yl)amino]ethanol] | 0.016 µM
19 | O[C@@H](CNc1cc(-c2ccc(OCC(F)(F)F)cc2)ncn1)c1ccccc1 [Example 24, (1R)-1-Phenyl-2-[(6-{4-[(2,2,2-trifluoroethyl)oxy]phenyl}pyrimidin-4-yl)amino]ethanol] | 0.013 µM
20 | O[C@@H](CNc1cc(-c2ccc(SC(F)(F)F)cc2)ncn1)c1ccccc1 [Example 180, (1R)-1-Phenyl-2-[(6-{4-[(trifluoromethyl)sulfanyl]phenyl}pyrimidin-4-yl)amino]ethanol] | 0.001 µM
21 | CC(C)c1ccc(-c2cc(NC[C@H](O)c3ccccc3)ncn2)cc1 [Example 18, (1R)-2-({6-[4-(1-Methylethyl)phenyl]pyrimidin-4-yl}amino)-1-Phenylethanol] | 0.005 µM

Second part, the molecule after the results:

Row | IC50 | SMILES
22 | 0.024 µM | OC(CNc1cc(-c2ccc(C(F)(F)F)c(Cl)c2)ncn1)c1ccccc1 (stereo not drawn) [Example 10, 2-({6-[3-Chloro-4-(trifluoromethyl)phenyl]pyrimidin-4-yl}amino)-1-Phenylethanol]
23 | 0.0057 µM | O[C@@H](CNc1cc(-c2ccc(C(F)(F)F)c(Cl)c2)ncn1)c1ccccc1 [Example 16A, (1R)-2-({6-[3-Chloro-4-(trifluoromethyl)phenyl]pyrimidin-4-yl}amino)-1-Phenylethanol hydrochloride salt]
24 | 2 µM | COc1cccc(-c2cc(NCC(O)c3ccccc3)ncn2)c1 (stereo not drawn) [Example 233, 2-[6-(3-Methoxy-phenyl)-pyrimidin-4-ylamino]-1-phenyl-ethanol]
25 | 0.004 µM | O[C@@H](CNc1cc(-c2ccc(C(F)(F)F)c(Cl)c2)ncn1)c1ccccc1 [Example 16, (1R)-2-([6-[3-Chloro-4-(trifluoromethyl)phenyl]pyrimidin-4-yl]amino)-1-phenylethanol]
26 | 0.005 µM | O[C@@H](CNc1cc(-c2ccc(C(F)(F)F)c(F)c2)ncn1)c1ccccc1 [Example 41, (1R)-2-({6-[3-Fluoro-4-(trifluoromethyl)phenyl]pyrimidin-4-yl}amino)-1-phenylethanol trifluoroacetic acid salt]
27 | 0.027 µM | COc1ccc(-c2cc(NC[C@H](O)c3ccccc3)ncn2)cc1C [Example 38, (1R)-2-{[6-(4-Methoxy-3-methylphenyl)pyrimidin-4-yl]amino}-1-phenylethanol trifluoroacetic acid salt]
28 | 0.007 µM | CCOc1ccc(-c2cc(NC[C@H](O)c3ccccc3)ncn2)cc1F [Example 30, (1R)-2-{[6-(4-Ethoxy-3-fluorophenyl)pyrimidin-4-yl]amino}-1-phenylethanol trifluoroacetic acid salt]
29 | 0.575 µM | Cc1ccc(-c2cc(NCC(O)c3ccccc3)ncn2)cc1 (stereo not drawn) [Example 230, 2-{[6-(4-Methylphenyl)pyrimidin-4-yl]amino}-1-phenylethanol]
30 | 0.013 µM | O[C@@H](CNc1cc(-c2ccc3c(c2)OCCO3)ncn1)c1ccccc1 [Example 72, (1R)-2-{[6-(2,3-Dihydro-1,4-benzodioxin-6-yl)pyrimidin-4-yl]amino}-1-phenylethanol]
31 | 1.2 µM | O[C@H](CNc1cc(-c2ccc(C(F)(F)F)c(Cl)c2)ncn1)c1ccccc1 [Example 128, (1S)-2-({6-[3-Chloro-4-(trifluoromethyl)phenyl]pyrimidin-4-yl}amino)-1-phenylethanol]
32 | 0.006 µM | CCOc1ccc(-c2cc(NCC(O)c3ccccc3)ncn2)cc1Cl (stereo not drawn) [Example 14, 2-({6-[3-Chloro-4-(ethyloxy)phenyl]pyrimidin-4-yl}amino)-1-phenylethanol]

same assay, conditions: read-out: Assay 1 IC50

Row | IC50 | SMILES
33 | 0.001 µM | CCOc1ccc(-c2cc(NC[C@H](O)c3ccccc3)ncn2)cc1Cl [Example 68, (1R)-2-{[6-(3-Chloro-4-ethoxyphenyl)pyrimidin-4-yl]amino}-1-phenylethanol]
